Laboratory results reported in ChEMBL document CHEMBL2417383, “Assay platform for clinically relevant metallo-β-lactamases” (J Med Chem, 2013).

Experiments:
[1] = Ratio of Kcat to Km for recombinant VIM-2 (unknown origin)
[2] = Ratio of Kcat to Km for recombinant IMP-1 (unknown origin)
[3] = Ratio of Kcat to Km for recombinant NDM-1 (unknown origin)
[4] = Ratio of Kcat to Km for recombinant SPM-1 (unknown origin)
[5] = Ratio of Kcat to Km for recombinant Bc2 (unknown origin)

kcat/Km [1]	kcat/Km [2]	kcat/Km [3]	kcat/Km [4]	kcat/Km [5]	SMILES
1.91e+07 M⁻¹ s⁻¹	5.17e+08 M⁻¹ s⁻¹	1.24e+08 M⁻¹ s⁻¹	1.03e+07 M⁻¹ s⁻¹	3.7e+06 M⁻¹ s⁻¹	O=C(Cc1ccccc1)N[C@@H]1C(=O)N2C(C(=O)O)=C(COc3ccc4ccc(=O)oc4c3)CS(=O)(=O)[C@H]12
1.8e+06 M⁻¹ s⁻¹	2e+06 M⁻¹ s⁻¹	2.7e+06 M⁻¹ s⁻¹	200000 M⁻¹ s⁻¹	60000 M⁻¹ s⁻¹	O=C(Cc1cccs1)N[C@@H]1C(=O)N2C(C(=O)O)=C(CSc3ccc([N+](=O)[O-])c(C(=O)O)c3)CS[C@H]12
		5.8e+06 M⁻¹ s⁻¹			O=C(Cc1ccccc1)N[C@@H]1C(=O)N2C(C(=O)O)=C(COc3ccc4ccc(=O)oc4c3)CS[C@H]12
2e+07 M⁻¹ s⁻¹	8.07e+08 M⁻¹ s⁻¹	3.2e+07 M⁻¹ s⁻¹	3.5e+06 M⁻¹ s⁻¹	700000 M⁻¹ s⁻¹	O=C(Cc1ccccc1)N[C@@H]1C(=O)N2C(C(=O)O)=C(COc3ccc4ccc(=O)oc4c3)C[S+]([O-])[C@H]12 (stereo partly specified)
